We go through 1 compound from ChEMBL document CHEMBL1138502, “Discovery and biological evaluation of novel cyanoguanidine P2X(7) antagonists with analgesic activity in a rat model of neuropathic pain” (J Med Chem, 2009).

For this test, the target named is T1, P2X purinoceptor 7 (Rattus norvegicus, UniProt Q64663).
T1 sequence (Q64663 whole entry): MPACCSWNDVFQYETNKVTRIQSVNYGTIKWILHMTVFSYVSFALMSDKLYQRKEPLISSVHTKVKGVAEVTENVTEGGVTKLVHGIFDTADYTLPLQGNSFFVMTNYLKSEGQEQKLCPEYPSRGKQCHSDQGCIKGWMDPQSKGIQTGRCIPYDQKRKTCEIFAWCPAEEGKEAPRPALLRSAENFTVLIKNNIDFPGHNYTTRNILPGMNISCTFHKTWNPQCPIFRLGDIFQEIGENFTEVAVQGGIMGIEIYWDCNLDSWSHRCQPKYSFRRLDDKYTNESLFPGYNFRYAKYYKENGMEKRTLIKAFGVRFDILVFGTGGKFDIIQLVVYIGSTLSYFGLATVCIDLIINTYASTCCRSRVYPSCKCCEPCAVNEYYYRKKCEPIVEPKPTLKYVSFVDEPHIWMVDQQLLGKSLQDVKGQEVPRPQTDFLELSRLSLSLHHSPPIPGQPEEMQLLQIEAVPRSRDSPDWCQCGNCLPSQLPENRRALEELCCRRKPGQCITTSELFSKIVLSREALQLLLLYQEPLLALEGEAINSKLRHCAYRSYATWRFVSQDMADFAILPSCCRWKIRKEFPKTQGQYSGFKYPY
Briefly: Antagonist activity at rat cloned P2X7 receptor expressed in HEK293 cells assessed as inhibition of calcium flux by FLIPR assay. The format is functional, cell-based. Summed up: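 Calcium influx read on a fluorometric imaging plate reader with Fluo-4 as the calcium-sensing dye. The P2X7 agonist was benzoylbenzoic ATP (BzATP). pIC50 values are the mean of two experiments unless otherwise indicated; some values are the mean of more than two experiments, with standard deviation shown.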
In general terms: Calcium flux is commonly read through the fluorescence of an indicator in the cells.

In the case of `COc1ccc(CC(=O)NC(N/C(=N/C#N)Nc2cccc3ncccc23)C(C)(C)C)cc1OC` (stereo unspecified), the IC50 (in general, the concentration at which inhibition is half-maximal) was 20 nM.
